TCR activator – activates T cell receptor signaling. AID 504894. Potency, µM (series often up to 9.22 µM), actives largely listed as activators. primary human leukocytes, anti-CD3, IL-2 HTRF, 48 h. 330,000 tested, under 10 active
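1) Mix primary human leukocytes, a-CD3 beads and compound. 2) Incubate 48 hr. 3) Add HTRF IL-2 reagents (a-IL-2-K, a-IL-2-d2).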
IL-2 act – IL-2 activation. AID 652025. activation, % (series mostly up to about 46 µM). IL-2 activation reporter assay, cell-based qHTS; stimulated with anti-CD3/CD4/CD28 beads; in transgenic mouse T cells. 360,000 tested, 0.065% active; in the data active = activation above about 50%; inconclusive = mostly about 30% to 49%
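Quantitative HTS in unstimulated transgenic mouse T cells, with memory T cells as non-tolerant control and PMA/ionomycin as tolerance-bypass control. Compound pretreatment lasted 60 minutes before 18 h bead stimulation; EGFP/DsRed fluorescence read.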
miR-21 reporter – raises the signal of a miR-21 reporter | Potency, µM (highest dose often 38.3 µM) | HeLa miR-21 FLuc reporter, luciferase, 48 h | 340,000 tested, under 10 active; active = well fitted rising curve with a large enough effect; inconclusive = small, poorly fitted or top-dose-only effect; inactive = no such curve, though single readings can be large or run the other way;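 further: miR-21 action dims this reporter so a rising signal means less miR-21 action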
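Compounds were titrated across several concentrations (up to approximately 40 uM) and incubated 48 hours with HeLa miR-21-FLuc reporter cells (miR-21 target sequence downstream of FLuc, endogenous miR-21). Readout was firefly luciferase luminescence after lytic detection reagent.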
RXFP1 ag – agonists of human relaxin receptor RXFP1; HEK293T-RXFP1 cAMP TR-FRET, 30 min; response scale: percent of porcine relaxin response, buffer zero; Potency, µM (titrated, usually from 57.5 µM), most hits filed as activators; 370,000 tested, 0.3% active; AID 2676; also: nearly all actives have a fitted effect of over 60% in size
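cAMP rise read by TR-FRET after 30 min, 37C compound exposure (up to 58 uM) in RXFP1-transfected HEK293 cells with Ro 20174 present. EC50 from Hill-equation fits, with 29 nM porcine relaxin as 100% and buffer as basal.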
PINK1 modulator – modulators of PINK1 expression | PINK1 immunofluorescence, high-content cytometry, 24 h | Potency, µM (highest dose often 76.6 µM), actives largely listed as activators | 410,000 tested, 0.2% active | AID 624263; active = well fitted activation curve with a large enough effect; inconclusive = small, poorly fitted or top-dose-only effect; cell line not stated here; also: nearly all actives have a fitted effect of over 65% in size
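Readout is PINK1 immunofluorescence, quantified alongside mitochondrial, cell and nuclear markers by laser-scanning microplate cytometry. Cells from a stable line were exposed to compound titrations (5 concentrations) for 24 hours, with CCCP controls.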
RXFP1 antag – blocks the human relaxin receptor RXFP1; Q9HBX9; activity change, negative = inhibition, % at 57.5 µM; AID 1259400; 350,000 tested, 0.59% active; HEK293-RXFP1, relaxin-stimulated cAMP HTRF, 30 min; active compounds read low;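 active = activity change of -60% or lower, but not beyond a set lower limit; inconclusive = change between -60% and -40%, or beyond the set limit; inactive = change above -40%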
Numbers stand for hits. An excerpt weighted towards active compounds, which were near 0.78% of everything screened. Unless noted, calls follow the shape of the dose curve; as a rule, active = well fitted curve in the direction sought with a large enough effect; inconclusive = small, poorly fitted or top-dose-only effect, or another doubt; inactive = no such curve, though single readings can be large; an effect the other way counts as inactive or inconclusive.

What do the screens show for `Cc1ccc(C(C#N)c2ccc3c(C(F)(F)F)cc(C(F)(F)F)nc3n2)cc1` (stereo not given)?
TCR activator: inactive; IL-2 act: inactive; miR-21 reporter: inactive; RXFP1 ag: inactive; PINK1 modulator: 8.91µM; RXFP1 antag: inactive

What do the screens show for `COc1ccccc1-n1cc(CN2CCOc3ccc(CN4C[C@@H](C)O[C@@H](C)C4)cc3C2)cn1`?
PINK1 modulator: inactive

How did Cc1cccc(CNC(=O)C2CCN(c3nc4ccc(Cl)cc4[nH]3)CC2)c1 do in these assays?
miR-21 reporter: inactive; RXFP1 ag: inactive; PINK1 modulator: inactive; RXFP1 antag: -72.1

Results for COCc1c(C(=O)NCC2CCCN(C)C2)cnn1-c1ncc2c(n1)-c1ccccc1CCC2 (stereo not given) ?
PINK1 modulator: inactive

How did N=c1c2c(n(Cc3ccc(Br)cc3)c3c1CCC3)CCCC2 do in these assays?
TCR activator: inactive; IL-2 act: inactive; miR-21 reporter: inconclusive; RXFP1 ag: inactive; PINK1 modulator: 35.5µM; RXFP1 antag: inactive

What do the screens show for `CC(C)(C)NCC(O)COc1ccccc1OCC1CCCO1` (stereo not given)?
RXFP1 antag: inactive

How did CCCCOc1cccc(C2/C(=C(\O)c3ccc4c(c3)OCCO4)C(=O)C(=O)N2CCN2CCOCC2)c1 (stereo not given) do in these assays?
TCR activator: inactive; IL-2 act: inactive; miR-21 reporter: inactive; RXFP1 ag: 25.1µM; PINK1 modulator: inactive; RXFP1 antag: inactive

How did CCCOc1cccc(C2/C(=C(\O)c3ccc4c(c3)OCCO4)C(=O)C(=O)N2CCCn2ccnc2)c1 (stereo not given) do in these assays?
TCR activator: inactive; IL-2 act: inactive; miR-21 reporter: inactive; RXFP1 ag: inconclusive; PINK1 modulator: inactive; RXFP1 antag: inactive

What do the screens show for `c1ccc(C(NCCNC(c2ccccc2)c2ccccc2)c2ccccc2)cc1`?
TCR activator: inactive; IL-2 act: inactive; miR-21 reporter: inactive; RXFP1 ag: inactive; PINK1 modulator: 39.8µM; RXFP1 antag: inactive

Results for NS(=O)(=O)c1ccc(CCNC(c2ccccc2)c2ccccc2)cc1 ?
TCR activator: inactive; IL-2 act: inactive; miR-21 reporter: inactive; RXFP1 ag: inactive; PINK1 modulator: inactive; RXFP1 antag: inactive

What do the screens show for `Cc1cc(Nc2cccc(C(F)(F)F)c2)nc2ccc(NC(=O)c3cccnc3)cc12`?
miR-21 reporter: inconclusive; RXFP1 ag: inactive; PINK1 modulator: inactive; RXFP1 antag: -72.0

Results for O=C(NCCN1Cc2ccccc2OC(c2ccccc2F)C1)c1ccco1 (stereo not given) ?
PINK1 modulator: inactive

What do the screens show for `Cc1occc1C(=O)N/N=C/C1=C(N2CCOCC2)C(=C\c2ccc(Cl)cc2Cl)/CC1`?
TCR activator: inactive; IL-2 act: inactive; miR-21 reporter: inactive; RXFP1 ag: inactive; PINK1 modulator: 31.6µM; RXFP1 antag: inactive

What do the screens show for `Cc1cc(C)nc(N/N=C/C2=C(N3CCOCC3)C(=C\c3ccc(Cl)cc3)/CC2)n1`?
TCR activator: inactive; IL-2 act: inactive; miR-21 reporter: inactive; RXFP1 ag: inactive; PINK1 modulator: inactive; RXFP1 antag: inactive

What do the screens show for `Cc1ccc(C2=NC(C)(C)N=C2SCC(=O)Nc2ccc(Cl)cc2)cc1`?
TCR activator: inactive; IL-2 act: inactive; miR-21 reporter: inactive; RXFP1 ag: inactive; PINK1 modulator: inactive; RXFP1 antag: -64.2

Results for CCOC(=O)/C=c1/s/c(=C/c2ccc3cc(OC)ccc3c2)c(=O)n1CC(=O)NCc1ccc2c(c1)OCO2 ?
TCR activator: inactive; IL-2 act: inactive; PINK1 modulator: inconclusive; RXFP1 antag: -78.6

Results for CCOC(=O)/C=c1\s/c(=C\c2ccc(-c3ccccc3)cc2)c(=O)n1CC(=O)NCc1ccc2c(c1)OCO2 ?
TCR activator: inactive; IL-2 act: inactive; miR-21 reporter: inactive; RXFP1 ag: inactive; PINK1 modulator: inactive; RXFP1 antag: inactive

Results for Oc1ccc(CNc2ccccc2F)c2cccnc12 ?
TCR activator: inactive; IL-2 act: inactive; miR-21 reporter: inconclusive; RXFP1 ag: inactive; PINK1 modulator: 28.2µM; RXFP1 antag: inactive

How did O=C1S/C(=C\c2ccc(O)c([N+](=O)[O-])c2)C(=O)N1Cc1cccc([N+](=O)[O-])c1 do in these assays?
TCR activator: inactive; IL-2 act: inactive; miR-21 reporter: inactive; RXFP1 ag: inactive; PINK1 modulator: 39.8µM; RXFP1 antag: inactive

Results for O=C1/C(=C\c2cc([N+](=O)[O-])ccc2O)SC(=S)N1Cc1ccc(Cl)cc1 ?
TCR activator: inactive; IL-2 act: inactive; miR-21 reporter: inactive; RXFP1 ag: inactive; PINK1 modulator: 14.1µM; RXFP1 antag: inactive

How did O=C1/C(=C\c2cccc(O)c2O)SC(=S)N1Cc1ccccc1 do in these assays?
TCR activator: inactive; IL-2 act: inactive; miR-21 reporter: inactive; RXFP1 ag: inactive; PINK1 modulator: inconclusive; RXFP1 antag: inactive

What do the screens show for `Cc1ccc(NC(=O)CN2C(=O)S/C(=C/c3ccc(O)c([N+](=O)[O-])c3)C2=O)cc1C`?
TCR activator: inactive; IL-2 act: inactive; miR-21 reporter: inactive; RXFP1 ag: inactive; PINK1 modulator: inactive; RXFP1 antag: -62.5

How did C[C@@H]1CN(Cc2ccc3c(c2)CN(Cc2cccn2-c2cccnc2)CCO3)C[C@H](C)O1 do in these assays?
PINK1 modulator: inactive

What do the screens show for `Cc1ccnn1CC(=O)N1CCOc2c(cc(-c3csc4ccccc34)cc2OC2CCOC2)C1` (stereo not given)?
PINK1 modulator: inactive

Results for CN1CCN(C(=O)c2ccc3c(=O)n(Cc4ccc5c(c4)OCO5)c(=S)[nH]c3c2)CC1 ?
PINK1 modulator: inactive

How did CCOC(=O)N1CCN(C(=O)c2ccc(Cn3c(=S)[nH]c4cc5c(cc4c3=O)OCO5)cc2)CC1 do in these assays?
TCR activator: inactive; IL-2 act: inactive; miR-21 reporter: inactive; RXFP1 ag: inactive; PINK1 modulator: inactive; RXFP1 antag: -92.4

Results for O=C(c1ccc2c(=O)n(Cc3ccc4c(c3)OCO4)c(=S)[nH]c2c1)N1CCCCC1 ?
IL-2 act: inactive; miR-21 reporter: inactive; RXFP1 ag: inactive; PINK1 modulator: 14.1µM; RXFP1 antag: inactive

What do the screens show for `Cc1cc2nc(-c3ccc(SCC(=O)NC(C)C)nc3)[nH]c2cc1C`?
miR-21 reporter: inactive; RXFP1 ag: inactive

Results for Cc1cc2nc(-c3ccc(SCc4ccc(C(=O)O)cc4)nc3)[nH]c2cc1C ?
TCR activator: inactive; IL-2 act: inactive; miR-21 reporter: inactive; RXFP1 ag: inactive; PINK1 modulator: inactive; RXFP1 antag: -97.7

What do the screens show for `O=C(C1CCCCC1)N1CC(=O)N2CCCc3ccccc3C2C1` (stereo not given)?
RXFP1 antag: inactive

Bioassay records from PubChem BioAssay.
